Measured values taken from the NIST ThermoML archive (doi:10.1016/j.jct.2015.02.007).

Assay: xn = mol fraction of the nth substance listed
Conditions: 100 kPa, Liquid; for mass density: Vibrating tube method; for speed of sound: Pulse-echo method

OCCOCCOCCOCCO [tetraethylene glycol] + O
Conditions	mass density [kg/m3]	speed of sound [m/s]
313.15 K, x1 = 1	1107.98 ± 0.16	–
318.15 K, x1 = 0.0003	–	1537.8 ± 1.3
318.15 K, x1 = 0.0005	–	1538.8 ± 1.2
318.15 K, x1 = 0.0011	–	1541.1 ± 1.2
318.15 K, x1 = 0.0019	–	1544 ± 1.2
318.15 K, x1 = 0.0033	–	1549.3 ± 1.2
318.15 K, x1 = 0.0051	–	1555.9 ± 1.2
318.15 K, x1 = 0.0077	–	1565.3 ± 1.2
318.15 K, x1 = 0.011	–	1576.2 ± 1.2
318.15 K, x1 = 0.0116	1006.25 ± 0.28	–
318.15 K, x1 = 0.0144	–	1587.1 ± 1.2
318.15 K, x1 = 0.0179	–	1597.3 ± 1.2
318.15 K, x1 = 0.0203	1016.43 ± 0.23	–
318.15 K, x1 = 0.0216	–	1607.7 ± 1.2
318.15 K, x1 = 0.0258	–	1618.5 ± 1.1
318.15 K, x1 = 0.0298	–	1627.8 ± 1.1
318.15 K, x1 = 0.0334	–	1635.5 ± 1.1
318.15 K, x1 = 0.0373	–	1643.2 ± 1.1
318.15 K, x1 = 0.0406	1035.93 ± 0.2	–
318.15 K, x1 = 0.042	–	1651.6 ± 1.1
318.15 K, x1 = 0.0468	–	1659.3 ± 1.1
318.15 K, x1 = 0.0494	–	1663 ± 1.1
318.15 K, x1 = 0.0513	–	1665.5 ± 1.1
318.15 K, x1 = 0.0541	–	1669.1 ± 1.1
318.15 K, x1 = 0.0562	–	1671.7 ± 1.1
318.15 K, x1 = 0.059	–	1674.7 ± 1.1
318.15 K, x1 = 0.0605	1050.29 ± 0.17	–
318.15 K, x1 = 0.0617	–	1677.5 ± 1.1
318.15 K, x1 = 0.0647	–	1680.2 ± 1.1
318.15 K, x1 = 0.0682	–	1683.1 ± 1.1
318.15 K, x1 = 0.0722	–	1686.1 ± 1.1
318.15 K, x1 = 0.077	–	1689 ± 1.1
318.15 K, x1 = 0.078	–	1689.6 ± 1.1
318.15 K, x1 = 0.0806	1061.25 ± 0.15	–
318.15 K, x1 = 0.082	–	1691.5 ± 1.1
318.15 K, x1 = 0.0847	–	1692.7 ± 1.1
318.15 K, x1 = 0.0852	–	1692.8 ± 1.1
318.15 K, x1 = 0.0878	–	1693.7 ± 1.1
318.15 K, x1 = 0.0893	–	1694.2 ± 1.1
318.15 K, x1 = 0.091	–	1694.7 ± 1.1
318.15 K, x1 = 0.0928	–	1695.1 ± 1.1
318.15 K, x1 = 0.0946	–	1695.5 ± 1.1
318.15 K, x1 = 0.095	–	1695.6 ± 1.1
318.15 K, x1 = 0.0975	–	1696 ± 1.1
318.15 K, x1 = 0.0993	–	1696.3 ± 1.1
318.15 K, x1 = 0.1013	–	1696.5 ± 1.1
318.15 K, x1 = 0.1024	1070.29 ± 0.13	–
318.15 K, x1 = 0.1068	–	1696.8 ± 1.1
318.15 K, x1 = 0.1071	–	1696.8 ± 1.1
318.15 K, x1 = 0.1174	–	1696.3 ± 1.1
318.15 K, x1 = 0.1339	–	1693.3 ± 1.1
318.15 K, x1 = 0.1511	1083.25 ± 0.13	–
318.15 K, x1 = 0.1514	–	1688.2 ± 1.1
318.15 K, x1 = 0.1626	–	1684.1 ± 1.1
318.15 K, x1 = 0.1741	–	1679.7 ± 1.1
318.15 K, x1 = 0.1879	–	1674.1 ± 1.1
318.15 K, x1 = 0.2006	1090.51 ± 0.13	–
318.15 K, x1 = 0.2091	–	1665.3 ± 1.1
318.15 K, x1 = 0.23	–	1656.9 ± 1.1
318.15 K, x1 = 0.2494	–	1649.3 ± 1.1
318.15 K, x1 = 0.25	1094.72 ± 0.13	–
318.15 K, x1 = 0.2715	–	1641.2 ± 1.1
318.15 K, x1 = 0.2962	–	1632.8 ± 1.1
318.15 K, x1 = 0.3012	1097.4 ± 0.13	–
318.15 K, x1 = 0.3232	–	1624.4 ± 1.1
318.15 K, x1 = 0.366	–	1612.6 ± 1.1
318.15 K, x1 = 0.4024	1100.31 ± 0.13	–
318.15 K, x1 = 0.416	–	1600.5 ± 1.1
318.15 K, x1 = 0.4896	–	1585.7 ± 1.1
318.15 K, x1 = 0.4964	1101.74 ± 0.14	–
318.15 K, x1 = 0.5655	–	1573.5 ± 1.1
318.15 K, x1 = 0.5985	1102.66 ± 0.14	–
318.15 K, x1 = 0.6606	–	1562.4 ± 1.1
318.15 K, x1 = 0.7018	1103.22 ± 0.14	–
318.15 K, x1 = 0.759	1103.41 ± 0.15	–
318.15 K, x1 = 0.7639	–	1554.2 ± 1.1
318.15 K, x1 = 0.8201	1103.57 ± 0.15	–
318.15 K, x1 = 0.8353	1103.61 ± 0.15	–
318.15 K, x1 = 0.8804	1103.7 ± 0.15	–
318.15 K, x1 = 0.8853	–	1546.5 ± 1.1
318.15 K, x1 = 0.9237	1103.79 ± 0.15	–
318.15 K, x1 = 0.9479	–	1542.2 ± 1.1
318.15 K, x1 = 0.9719	1103.92 ± 0.15	–
318.15 K, x1 = 0.9817	–	1539.8 ± 1.1
318.15 K, x1 = 1	1104.01 ± 0.16	1538.5 ± 1.1
323.15 K, x1 = 0.0116	1003.82 ± 0.28	–
323.15 K, x1 = 0.0203	1013.81 ± 0.23	–
323.15 K, x1 = 0.0406	1032.93 ± 0.2	–
323.15 K, x1 = 0.0605	1046.99 ± 0.17	–
323.15 K, x1 = 0.0806	1057.73 ± 0.15	–
323.15 K, x1 = 0.1024	1066.59 ± 0.13	–
323.15 K, x1 = 0.1511	1079.35 ± 0.13	–
323.15 K, x1 = 0.2006	1086.52 ± 0.13	–
323.15 K, x1 = 0.25	1090.71 ± 0.13	–
323.15 K, x1 = 0.3012	1093.38 ± 0.13	–
323.15 K, x1 = 0.4024	1096.31 ± 0.13	–
323.15 K, x1 = 0.4964	1097.75 ± 0.14	–
323.15 K, x1 = 0.5985	1098.68 ± 0.14	–
323.15 K, x1 = 0.7018	1099.24 ± 0.14	–
323.15 K, x1 = 0.759	1099.44 ± 0.14	–
323.15 K, x1 = 0.8201	1099.6 ± 0.15	–
323.15 K, x1 = 0.8353	1099.63 ± 0.15	–
323.15 K, x1 = 0.8804	1099.72 ± 0.15	–
323.15 K, x1 = 0.9237	1099.82 ± 0.15	–
323.15 K, x1 = 0.9719	1099.94 ± 0.15	–
323.15 K, x1 = 1	1100.02 ± 0.16	–
328.15 K, x1 = 0.0116	1001.24 ± 0.27	–
328.15 K, x1 = 0.0203	1011.07 ± 0.22	–
328.15 K, x1 = 0.0406	1029.83 ± 0.2	–
328.15 K, x1 = 0.0605	1043.61 ± 0.17	–
328.15 K, x1 = 0.0806	1054.13 ± 0.15	–
328.15 K, x1 = 0.1024	1062.83 ± 0.13	–
328.15 K, x1 = 0.1511	1075.4 ± 0.13	–
328.15 K, x1 = 0.2006	1082.51 ± 0.13	–
328.15 K, x1 = 0.25	1086.67 ± 0.13	–
328.15 K, x1 = 0.3012	1089.35 ± 0.13	–
328.15 K, x1 = 0.4024	1092.28 ± 0.13	–
328.15 K, x1 = 0.4964	1093.75 ± 0.13	–
328.15 K, x1 = 0.5985	1094.69 ± 0.14	–
328.15 K, x1 = 0.7018	1095.26 ± 0.14	–
328.15 K, x1 = 0.759	1095.46 ± 0.14	–
328.15 K, x1 = 0.8201	1095.62 ± 0.15	–
328.15 K, x1 = 0.8353	1095.65 ± 0.15	–
328.15 K, x1 = 0.8804	1095.74 ± 0.15	–
328.15 K, x1 = 0.9237	1095.84 ± 0.15	–
328.15 K, x1 = 0.9719	1095.95 ± 0.15	–
328.15 K, x1 = 1	1096.04 ± 0.15	–
333.15 K, x1 = 0.0116	998.51 ± 0.27	–
333.15 K, x1 = 0.0203	1008.17 ± 0.22	–
333.15 K, x1 = 0.0406	1026.6 ± 0.19	–
333.15 K, x1 = 0.0605	1040.12 ± 0.17	–
333.15 K, x1 = 0.0806	1050.46 ± 0.15	–
333.15 K, x1 = 0.1024	1059.02 ± 0.13	–
333.15 K, x1 = 0.1511	1071.42 ± 0.13	–
333.15 K, x1 = 0.2006	1078.47 ± 0.13	–
333.15 K, x1 = 0.25	1082.62 ± 0.13	–
333.15 K, x1 = 0.3012	1085.29 ± 0.13	–
333.15 K, x1 = 0.4024	1088.24 ± 0.13	–
333.15 K, x1 = 0.4964	1089.72 ± 0.13	–
333.15 K, x1 = 0.5985	1090.68 ± 0.14	–
333.15 K, x1 = 0.7018	1091.26 ± 0.14	–
333.15 K, x1 = 0.759	1091.46 ± 0.14	–
333.15 K, x1 = 0.8201	1091.62 ± 0.14	–
333.15 K, x1 = 0.8353	1091.66 ± 0.14	–
333.15 K, x1 = 0.8804	1091.76 ± 0.15	–
333.15 K, x1 = 0.9237	1091.85 ± 0.15	–
333.15 K, x1 = 0.9719	1091.96 ± 0.15	–
333.15 K, x1 = 1	1092.05 ± 0.15	–

± gives the expanded uncertainty stated by the source.
